Source: PMC8625360, “Direct Interaction of ATP7B and LC3B Proteins Suggests a Cooperative Role of Copper Transportation and Autophagy” (Cells, 2021)

Assays:
Assay in all cases: fluorescence polarisation; 25 µL CF-labelled peptide at 2.5 µM combined with 25 µL LC3B at 0.2-330 µM, black 384-well plate; HEPES buffer (50 mM HEPES pH 7.2, 50 mM NaCl, 2 mM DTE); one site-specific binding fit; three replications
[1] = target: LIR3 peptide of ATP7B with W1452A/L1455A, CF-labelled
[2] = target: LIR3 peptide of ATP7B phosphorylated at S1453, CF-labelled
[3] = target: LIR2 peptide of ATP7B, CF-labelled
[4] = target: LIR3 peptide of ATP7B with L1455A, CF-labelled
[5] = target: LIR3 peptide of ATP7B with W1452A, CF-labelled
[6] = target: LIR1 peptide of ATP7B, CF-labelled
[7] = target: LIR3 peptide of ATP7B, CF-labelled (native)

LC3B protein (microtubule-associated protein light chain 3B), purified, tags removed (from UniProt Q9GZQ8 1-120) (natural protein)
Kd [1]: > 250 µM
Kd [2]: 12.9 µM
Kd [3]: > 250 µM
Kd [4]: 43 µM
Kd [5]: > 250 µM
Kd [6]: > 250 µM
Kd [7]: 3.72 µM
